Target: Apoptosis regulator Bcl-2 (Homo sapiens, UniProt P10415)
Experiment: Inhibition of Bcl-2 (unknown origin) by fluorescence polarization assay

Sequences of proteins named here, by UniProt entry; tags and fusion partners are left off.
UniProt P10415, whole entry: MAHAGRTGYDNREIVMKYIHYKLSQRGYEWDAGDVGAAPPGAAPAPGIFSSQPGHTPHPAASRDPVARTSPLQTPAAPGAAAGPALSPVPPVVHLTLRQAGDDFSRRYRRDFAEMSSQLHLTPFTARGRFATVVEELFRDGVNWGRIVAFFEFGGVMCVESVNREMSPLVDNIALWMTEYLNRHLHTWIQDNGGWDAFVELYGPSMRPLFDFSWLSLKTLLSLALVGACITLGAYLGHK

Question: With `CC1(C)CCC(c2ccc(Cl)cc2)=C(CN2CCN(c3ccc(C(=O)NS(=O)(=O)c4ccc(N[C@H](CCN5CCOCC5)CSc5ccccc5)c(S(=O)(=O)C(F)(F)F)c4)cc3)CC2)C1` [NAVITOCLAX] as the compound, how does the Ki read?
Answer: Its Ki is under 1 nM.
